From patent publication US4013507A, “Ionene polymers for selectively inhibiting the vitro growth of malignant cells” (California Institute of Technology, priority 1975, dated 1977) come the findings set out here.

A short description of the data set: in vivo. The note with it: mouse. The text has this: Due to the high positive charge density and high water solubility, ionenes strongly interact with a wide variety of cell materials.

Some results are limits rather than exact numbers.

A word on the LD50: it is the dose at which mortality reaches 50%.

On to `C[N+]1(C)CCCC1`, for which the LD50 is 100 to 200 mg/kg (ip) and greater than 1000 mg/kg (po).
